Target: Protein farnesyltransferase (Homo sapiens, UniProt P49354+P49356)
Experiment: Inhibition of Protein farnesyltransferase (FPT)
Format: protein-complex assay
Settings: read-out: I50

- IC50: 1000 nM
SMILES: CC(C)C[C@H](NC(=O)[C@@H](NC(=O)[C@@H](N)CS)C(C)C)C(=O)N[C@@H](CO)C(=O)O

Reference: ChEMBL document CHEMBL1127942, “Phenol based tripeptide inhibitors of ras farnesyl protein transferase” (Bioorg Med Chem Lett, 1994)
